Measured values as given in PubChem BioAssay AID720632 (Broad Institute, 2013).

Sequences of proteins named here, by UniProt entry; tags and fusion partners are left off. A change or cut given only in a name is not applied to a line headed by its entry.
UniProt P55212: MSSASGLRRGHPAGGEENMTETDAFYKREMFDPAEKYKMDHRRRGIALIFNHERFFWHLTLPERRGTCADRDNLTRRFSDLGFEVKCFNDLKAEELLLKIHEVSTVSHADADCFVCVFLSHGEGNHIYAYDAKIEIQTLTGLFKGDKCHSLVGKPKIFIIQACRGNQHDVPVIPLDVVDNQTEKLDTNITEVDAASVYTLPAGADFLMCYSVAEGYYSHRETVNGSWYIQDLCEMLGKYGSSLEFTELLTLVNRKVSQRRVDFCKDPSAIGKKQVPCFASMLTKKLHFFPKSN

Target: Caspase-6 (Homo sapiens) (UniProt P55212)
Assay: human caspase-6 inhibitors, dose response, biochemical, VEID-R110 fluorescence, cherry-pick (AID 720632)
Settings: caspase-6, VEID-R110 fluorogenic substrate

Q: For C[N+]1=C2C=CC=CC=C2SC12C([N+](=O)[O-])=CC([N+](=O)[O-])=C[C-]2[N+](=O)[O-] (stereo unspecified), which AC50 is on record?
A: 1700 nM
